Results: patent US20040214320A1, “Mammalian gamete and embryo culture media supplement and method of using same” (Vitrolife, Inc,, priority 2000, published 2004)

Assays:
outbred mouse embryo [1] = test: Outbred mouse embryo development in culture, fertilized eggs cultured 4 days (G1.2 48 h, then G2.2 48 h); format: cell-based
Experimental: Embryos were cultured at 37° C. in 6% CO2:5% O2:89% N2 in an embryo incubation volume of 10 embryos: 20 μl of medium. Embryos were cultured in medium G 1.2 for 48 h followed by 48 h of culture in medium G 2.2.
Initial experiments investigated replacing albumin purified from blood with HYN for outbred mouse embryo development in culture. Fertilized eggs were cultured for 4 days in one of 4 different concentrations of HYN. Embryos were cultured at 37° C. in 6% CO2:5% O2:89% N2 in an embryo incubation volume of 10 embryos: 20 μl of medium. Embryos were cultured in medium G1.2 for 48 h followed by 48 h of culture in medium G2.2. The negative control treatment was no protein.
Fertilized eggs were cultured for 4 days. Embryos were cultured at 37° C. in 6% CO2:5% O2:89% N2 in an embryo incubation volume of 10 embryos: 20 μl of medium. Embryos were cultured in medium G 1.2 for 48 h followed by 48 h of culture in medium G 2.2.
Embryos were cultured at 37° C. in 6% CO2:5% O2:89% N2 in an embryo incubation volume of 10 embryos: 20 μl of medium. Embryos were cultured in medium G1.2 for 48 h followed by 48 h of culture in medium G2.2.

outbred mouse embryo [2] = test: Outbred mouse embryo development after transfer of cultured blastocysts to recipient mice; format: in vivo; conditions: cultured 4 days, transferred at blastocyst stage to recipient females
Experimental: Media G1.2/G2.2 were prepared from concentrated stock solutions as taught in Example 1. rHA was added as a 250 mg/ml stock solution of 200 μto 9.8 mls of media, fermented HYN was added from a x100 stock solution of 100 μl to 10 mls of media. Subsequent experiments investigated replacing albumin purified from blood with rHA together with fermented HYN for outbred mouse embryo development after transfer to recipient mice. Fertilized eggs were cultured for 4 days and then transferred at the blastocyst stage to recipient females. Embryos were cultured at 37° C. in 6% CO2:5% O2:89% N2 in an embryo incubation volume of 10 embryos: 20 μl of medium. Embryos were cultured in medium G1.2 for 48 h followed by 48 h of culture in medium G2.2.

CF1 mouse embryos [3] = test: CF1 mouse embryo culture to the blastocyst stage; format: cell-based
Experimental: (§1) This experiment investigated the effects of growing CF1 mouse embryos in culture in the presence of rHA and HYN on the ability of the embryos to survive freezing and thawing. CF1 mouse embryos were cultured to the blastocyst stage and development and ability to survive the freezing procedure was assessed.

CF1 mouse embryos [4] = test: CF1 mouse blastocyst survival of freezing and thawing; format: cell-based
Experimental: as §1

CF1 mouse blastocysts = test: Blastocyst attachment and outgrowth in culture following cryopreservation; format: cell-based
Experimental: The ability of the blastocysts to outgrow in culture following cryopreservation was also assessed. The outgrowth of both the ICM and TE was scored between 0-3 where 0 represented no outgrowth and 3 represented extensive outgrowth.

human embryos = test: Human IVF: pregnancies and implantation; format: in vivo; conditions: human IVF patients
Source text: The IVF protocol as outlined in Gardner et al. 1988 and Schoolcraft 1999 were used in this example.

cow embryos = test: Cow embryo development in culture, fertilized eggs cultured 6 to 7 days (G1.2 72 h, then G2.2 72 h); format: cell-based
Experimental: (§2) Fertilized eggs were cultured for 6 to 7 days. Embryos were cultured at 38.5° C. in 6% CO2:5% O2:89% N2 in 500 μl of medium. Embryos were cultured in medium G1.2 for 72 h followed by 72 h of culture in medium G2.2.
as §2
Fertilized eggs were cultured for 6 to 7 days. Embryos were cultured at 38.5° C. in 6% CO2:5% O2:89% N2 in 500 μl of medium. Embryos were cultured in medium G1.2 for 72 h, followed by 72 h of culture in medium G2.2. Blastocysts were either stained for cell numbers or frozen and subsequently thawed to assess survival.

[5] = 5 mg/ml in medium, 4 days culture
[6] = Example 3: 5 mg/ml HSA vs 1.25 mg/ml rHA + 0.125 mg/ml HYN, 4 days culture
[7] = CF1 mouse blastocysts after freezing and thawing
[8] = 1.25 mg/ml in medium, 4 days culture
[9] = 2.5 mg/ml in medium, 4 days culture

Substance: HSA: naturally occurring human serum albumin (blood product), positive control
- % ICM/Total (outbred mouse embryo [1]; [5]): 23.6 ± 0.6%
- Blastocyst (outbred mouse embryo [1]; [5]): 72.6
- Cell Number (outbred mouse embryo [1]; [5]): 74.3 ± 2.4^bc
- Hatching (outbred mouse embryo [1]; [5]): 38.7
- ICM Number (outbred mouse embryo [1]; [5]): 17.2 ± 0.7^b
- TE Number (outbred mouse embryo [1]; [5]): 56.2 ± 2.0^bc
- % ICM/Total (outbred mouse embryo [1]; [6]): 24.3 ± 0.5%
- Cell Number (outbred mouse embryo [1]; [6]): 73.3 ± 1.7
- ICM Number (outbred mouse embryo [1]; [6]): 17.8 ± 0.6
- TN Number (outbred mouse embryo [1]; [6]): 55.5 ± 1.3
- Fetal development (%) (outbred mouse embryo [2]): 43.3%
- Fetus/implantation site (%) (outbred mouse embryo [2]): 68.4%
- Implantation rate (%) (outbred mouse embryo [2]): 63.3%
- Weight (outbred mouse embryo [2]): 208 mg
- Blastocyst Hatching Rates (%) (CF1 mouse embryos [3]): 49.0%
- Development to the Blastocyst Stage (%) (CF1 mouse embryos [3]): 88.2%
- Completely Hatched After Freezing (CF1 mouse embryos [4]; [7]): 28.6
- Hatching After Freezing (%) (CF1 mouse embryos [4]; [7]): 42.9%
- Re-expansion After Freezing (%) (CF1 mouse embryos [4]; [7]): 76.1%
- Attachment (%) (CF1 mouse blastocysts): 89.5%
- Implantation Rates (human embryos): 32.8%
- Resulting Pregnancies (percent) (human embryos): 70%
- Resulting Pregnancies (number) (human embryos; HSA 10 patients, RHA + citrate + HYN 12 patients): 7

Substance: rHA: recombinant human albumin, in one embodiment obtained from genetically modified yeast
- % ICM/Total (outbred mouse embryo [1]; [8]): 24.0 ± 0.6%
- Blastocyst (outbred mouse embryo [1]; [8]): 70.7
- Cell Number (outbred mouse embryo [1]; [8]): 72.6 ± 2.2^bc
- Hatching (outbred mouse embryo [1]; [8]): 46.6
- ICM Number (outbred mouse embryo [1]; [8]): 17.7 ± 0.6^b
- TE Number (outbred mouse embryo [1]; [8]): 56.4 ± 1.9^bc
- % ICM/Total (outbred mouse embryo [1]; [9]): 24.2 ± 0.5%
- Blastocyst (outbred mouse embryo [1]; [9]): 75
- Cell Number (outbred mouse embryo [1]; [9]): 78.1 ± 2.5^b
- Hatching (outbred mouse embryo [1]; [9]): 39.3
- ICM Number (outbred mouse embryo [1]; [9]): 18.4 ± 0.5^b
- TE Number (outbred mouse embryo [1]; [9]): 58.4 ± 2.1^b
- % ICM/Total (outbred mouse embryo [1]; [5]): 25.2 ± 0.7%
- Blastocyst (outbred mouse embryo [1]; [5]): 76.8
- Cell Number (outbred mouse embryo [1]; [5]): 65.9 ± 2.7^ac
- Hatching (outbred mouse embryo [1]; [5]): 37.5
- ICM Number (outbred mouse embryo [1]; [5]): 16.3 ± 0.7^b
- TE Number (outbred mouse embryo [1]; [5]): 49.6 ± 2.4^ac
- embryo development in culture, replacement of HSA (outbred mouse embryo [1]; concentrations of 1.25 to 2.5 mg/ml): able to replace HSA
- Total Blastocyst Day 6 (cow embryos; Example 7, cow, day 6): 22.1^b
- Total Blastocyst Day 7 (cow embryos; Example 7, cow, day 7): 38.4
- Day 6 Blastocyst Cell Number (cow embryos; Example 8, cow, day 6): 123 ± 7^b
- Day 6 Blastocyst Inner Cell Mass Cell Number (cow embryos; Example 8, cow, day 6): 37.9 ± 1.9^b
- Total Blastocyst Day 6 (cow embryos; Example 8, cow, day 6): 36.6
- blastocyst hatching after thawing compared to HSA (CF1 mouse embryos [4]; P<0.05): significantly increases
- development of the ICM (outgrowth) compared to human serum albumin (CF1 mouse blastocysts): increased

Marks after values point to notes of the source that are not given here.
